# scFv variants of Ab-14 (heavy chain) against a SARS-CoV-2 spike peptide

Data: MIT Lincoln Laboratory AlphaSeq set, Li et al. 2023, doi:10.1038/s41467-023-39022-2, as distributed in FLAb.

Target peptide (SARS-CoV-2 spike, HR2 region): PDVDLGDISGINAS

Ab-14 is the parent antibody, in scFv form: VH, then a 15-residue (Gly4Ser)3 linker, then VL. The light chain is unchanged in all variants.
VH: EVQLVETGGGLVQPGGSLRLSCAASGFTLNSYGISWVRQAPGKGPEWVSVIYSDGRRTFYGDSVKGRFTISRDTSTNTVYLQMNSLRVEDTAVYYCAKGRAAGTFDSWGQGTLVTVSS
VL: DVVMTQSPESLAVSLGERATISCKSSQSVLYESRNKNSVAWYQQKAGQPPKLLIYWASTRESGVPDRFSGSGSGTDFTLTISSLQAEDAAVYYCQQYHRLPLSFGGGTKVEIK

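The variants were designed computationally from a first round of random CDR variants and then made and measured. Their group label is 14H_Rand (Rand: our label for a block that the file lists under HC and that is probably the random mutants of the ten best first-round binders). The assay is AlphaSeq: two haploid yeast populations carry antibody and antigen on their surface. After mating in shaken culture at 30 °C for 16 h, diploids were selected and their barcode pairs sequenced. Scores were corrected for input abundance and mapped to Kd with protein pairs of known affinity run in the same pool. The assay was run in six technical replicates.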

The parent's heavy chain CDRs are GFTLNSYGIS, VIYSDGRRTFYGDSVK, GRAAGTFDS; each variant's own CDRs replace them letter for letter. Numbers give log10(Kd / nM), so 0 is 1 nM and 3 is 1 µM. Smaller is tighter. A pair that was not seen in that replicate is written "nd"; this usually means weak binding, but a binder can also be missed. Of ten entries with the parent sequence, four were seen in most replicates (averages 0.34 to 2.37), three in one and three in none, so single entries are noisy.

CDR-H1	CDR-H2	CDR-H3	log10 Kd (nM) by replicate	control signals
GFTLNSYGIS	VIYADGRRTFYSDSVK	GRAGGTFDS	0.58 / 0.42 / 0.09 / 0.24 / 0.54 / 0.71	1/18 (3.58)
KSTLNELGIS	VIYSDGRRTFYTDSVK	GRCAGTFDS	nd / nd / nd / nd / nd / nd	0/18
GFTLNSYGIS	VIYSDGRRTMYSDSVK	GRAGGTFDS	nd / 1.48 / nd / nd / nd / nd	0/18
GFTVEQYGIS	VIYSDGRRTFYSDSVK	GRAAGFFDS	nd / nd / nd / nd / nd / nd	0/18
GFTLCSYGIS	VIYADGRRTFYGDSVK	GRAAGTNKS	nd / nd / nd / nd / nd / nd	0/18
GFTLNKYGIS	VIYSIGRRTFYGDSVK	GRAAVTFDQ	nd / nd / nd / nd / nd / nd	0/18
GFTLNQYGIS	VIYSDGRRQSYSDSVK	GRAAGFFDS	nd / nd / nd / nd / nd / nd	0/18
GFTLDSYGIS	VIYSDGRPTFYGDSQK	HWAAGTALS	nd / nd / nd / nd / nd / nd	0/18
GFTLNSYGIS	VSYSDKRRSFYSDSVK	GRAGGTFDS	nd / nd / nd / nd / nd / nd	0/18
GFTLNQYGIS	VIYSDGRYTFYGDSVK	GRAAPTFIS	nd / nd / nd / nd / nd / nd	0/18
GYTLDSYGIS	VIYSDGRRTFYGDSVK	GRAAGTALS	nd / nd / nd / nd / nd / nd	0/18
GFTLNEYGIS	VIYSDGRDTFYGDCVK	GMAAVTFDQ	nd / nd / nd / nd / nd / nd	0/18
GFELNSYGIS	VIYSDGRRTFYGMTWK	FLAAHWFNS	nd / nd / nd / nd / nd / nd	0/18
EFTLNSYGIS	VIYSKQRRTFYSDSPK	GRAGWTFDS	nd / nd / nd / nd / nd / nd	0/18
GFTLNQYGIS	VIYSDGKRTFYSDSVK	GRAAGFFDS	nd / nd / nd / nd / nd / nd	1/18 (2.13)
GFTLNDYGIS	VIYSDKRRTFPGCSVK	GRAALTKPS	nd / nd / nd / nd / nd / nd	0/18
GFTLDSYGIS	VIYSLGRRTFYGDSVK	GRAAGTALS	nd / nd / nd / nd / nd / nd	0/18
GFTLNSYGIS	VIYADDRRTFYGDDVK	GRAAGTNKS	nd / nd / nd / nd / nd / nd	0/18
GFTHNDYGIS	VIYSDGRRTFYGDSVK	NRAALTFIS	nd / nd / nd / nd / nd / nd	0/18
GFTLNSYGIS	VIYSDMRRTLYDDSVK	GDLAGTFDH	nd / nd / nd / nd / nd / nd	0/18
GFTLNSYGIS	VIYADGRRTSYGDSVK	GRAAGTNKS	0.54 / -0.15 / 0.02 / 0.61 / 0.29 / 0.40	0/18
GFTLNDKGIS	VIYSDGRRTVYGDSVK	GRAALTFIS	nd / nd / nd / nd / nd / nd	0/18
GPTLNEYGIS	VIYSDGRRTFYTDSVK	GRFAGCFDS	nd / nd / nd / nd / nd / nd	0/18
GFTLNQYGIS	VILSDGMRTFYTDSVK	GRAAGFFDS	nd / nd / nd / nd / nd / nd	0/18
GFTLDSAGIS	VIYSDGRHTFYGDSVK	GRAIGTALS	nd / nd / nd / nd / nd / nd	0/18
GFTLNEYGIS	VIYSDGRRTFYGDLVK	GRAAVMFDQ	nd / nd / nd / nd / nd / nd	0/18
GFTLNSYGIQ	VIYADGFRTFYGDSFK	GRAAGTNKS	nd / nd / nd / nd / nd / nd	1/18 (0.93)
GFTLNSYGDS	VIYGLGRRTFYSDSVK	GRAGGTFDS	nd / nd / nd / nd / nd / nd	0/18
GFTLNEYGIS	VIYSDGRRTFYTDSVK	RRFAGTFDS	nd / nd / nd / nd / nd / nd	0/18
GFTLNSYGIS	VIYSDGRRTWYDDSVK	GTLAGFFDS	nd / nd / nd / nd / nd / nd	0/18
GFLLNSYGIS	VIYSDGRRTFYGDSVK	GRAAGWFNS	nd / nd / nd / nd / nd / nd	0/18
GFTCNQYGIS	VIYSDGRRTFYSDSVK	GRAAGFFDS	nd / nd / nd / nd / nd / nd	1/18 (1.26)
GFTLNSYGIS	VIYSDGRRTFYSDSVK	TRAGGTFDK	nd / nd / 1.61 / 2.09 / nd / nd	0/18
GFTLDSYGIS	VIYSDGRRTFYGDSDK	GRAAGYALS	nd / nd / nd / nd / nd / nd	0/18
GFTLNDYGIS	VIYSDGRRTFYGDSVK	GRRNLTFIS	nd / nd / 2.15 / nd / nd / 1.71	0/18
GFTLNSYGIS	VIYSIGRMTFYDDSVK	GQLANTFDS	nd / nd / nd / nd / nd / nd	0/18
GFTLNEYVIS	VIYSDGRRTFYGDSVK	GRAAVTFDQ	nd / nd / nd / nd / nd / nd	0/18
GFTLNQYGIS	VIYNCGRRTFYSMSVK	GRSAGQFDL	nd / nd / nd / nd / nd / nd	0/18
GFTLNSYGIS	VIYADGRRTFYGPSVK	GRAAGTYKS	nd / nd / nd / nd / nd / nd	0/18
GFTLYDYGIS	VIYSDGCRTQYSDSVK	GRAAGTFDS	nd / nd / nd / nd / nd / nd	0/18
GMDLNSYGIS	VIYSDGRRTFYGDSVK	GRAAGWFNS	nd / nd / nd / nd / nd / nd	0/18
GFTLNIYGIS	VIYSDGRRTFYSDSVK	GPAAGFFDS	nd / nd / nd / nd / nd / nd	0/18
GFTLNSYGIS	VIYSDGRRTFYSDSVK	GRAGGSFDS	nd / nd / nd / nd / nd / nd	0/18
GFPLNSYGPS	VIYSDGRRTFYDDSVK	GMLARTFDS	nd / nd / nd / nd / nd / nd	0/18
GFTLNQYGIS	VIMSDGRRTFYSDSVK	GRAAGFFDR	nd / nd / nd / nd / nd / nd	0/18

Picked from the list: the 2 lowest averages where every replicate gave a value.

CDR-H1	CDR-H2	CDR-H3	log10 Kd (nM) by replicate	control signals
GFTLNSYGIS	VIYADGRRTSYGDSVK	GRAAGTNKS	0.54 / -0.15 / 0.02 / 0.61 / 0.29 / 0.40	0/18
GFTLNSYGIS	VIYADGRRTFYSDSVK	GRAGGTFDS	0.58 / 0.42 / 0.09 / 0.24 / 0.54 / 0.71	1/18 (3.58)

The authors' rule: three or more of the six replicates give a measured affinity, fewer mean a poor binder. Background: pairings of all heavy chain designs with three empty control strains gave a value in 1% of cases (median 2.08, 5th percentile 0.84). Values in that range, when seen in few replicates, are hard to tell from nonspecific mating. For each scFv, signals with the empty controls are counted beside the result, with their mean in brackets. A sequence measured in both rounds can read differently, since the two assays cover different ranges.